Assays:
[1] = tested on: metastatic melanoma; settings: high dose IL-2; cited from earlier work
[2] = tested on: Splenocytes; assay: IL-2 bioactivity study (splenocyte stimulation, IFN-γ ELISA); assay type: cell-based, B6 mouse; settings: IFN-γ production correlated with IL-2 concentration
Procedure: Cumulative release of nLG-IL-2 was performed at 1, 3, 5, and 7 days in complete media [RPMI media (Gibco) with 10% fetal bovine serum (Atlanta Biological) and penicillin/streptomycin (Sigma) supplemented with L-glutamine (Sigma), non-essential amino acids (Gibco), Hepes buffer (Sigma), gentamicin (Sigma), and β-mercaptoethanol (Sigma)]. Splenocytes were isolated from a B6 mouse and 1×10^6 cells were added in 500 μL T cell media to each well of a 24 well plate previously coated with 10 μg/mL anti-CD3 (coated overnight in 1×PBS at 4° C.) and 5 μg/mL soluble anti-CD28 (BD Biosciences). The media from release studies was filtered through a 0.22-μm syringe filter (Whatman) and 500 μL was added to the wells. Additionally all wells contained 5 μg/mL, soluble anti-CD28 (BD Biosciences). Soluble IL-2 was added at varying concentrations to control wells to as a standard. Cells were incubated at 37° C. and cellular stimulation was assessed after 72 hours using an IFN-γ ELISA (BD Biosciences).

For “IL-2: immunostimulatory protein, soluble 17 kDa cytokine”, the “patients achieving durable complete remissions” value [1] is given as “Approximately 5%” and the “bioactivity after lipogel incorporation” value [2] is given as “unaffected”.

Source: US11173119B2, “Nanolipogel vehicles for controlled delivery of different pharmaceutical agents” (YALE UNIVERSITY, priority 2012, dated 2021)
